Laboratory results taken from US20250161419A1, “SERPIN PEPTIDES AND METHODS OF USING THE SAME” (SERPIN PHARMA, LLC, priority 2022, published 2025).

Key:
[1] = tested on: mechanical hypersensitivity after PNL in mice; assay: Neuropathic pain model, partial nerve ligation (PNL), tactile allodynia by von Frey filaments; assay type: in vivo, mouse; conditions: male mice
Procedure: Neuropathic pain model: Mice (n=30) were randomly assigned to two different groups: SP163M (2 μg/g; s.c. 100 μl) and vehicle (H20 s.c. 100 μl). Mice were treated 1 h prior to partial nerve ligation (PNL) and then daily at least 1 h prior to behavior testing for 2 weeks. PNL studies were performed as previously disclosed^59 and adapted for mice.^57 Male mice were anesthetized with 3% isoflurane (Vetone, USA) in 1.5 L/min oxygen (Praxair, USA) and maintained with 2.5% isoflurane. An incision was made along the long axis of the femur. The sciatic nerve was exposed at mid-thigh level by separating the biceps femoris and the gluteus superficialis and then carefully cleared of surrounding connective tissue. A 9-0 nylon suture (Ethicon, Inc., Somerville, NJ, USA) was inserted into the nerve and ligated so that the one-third to one-half of the nerve was included. The muscle and skin layers were closed using Reflex7 7 mm stainless steel wound clips (CellPoint Scientific, Inc., Gaithersburg, MD, USA). For behavior testing, mice were acclimated, and baseline tested for one week prior to PNL. […] Filaments were presented in a consecutive fashion either ascending or descending using the up-down method as previously disclosed^60 and modified for mice.^57,61 The filament that caused paw withdrawal 50% of the time (the 50% PWT) was determined. […]

[2] = tested on: eosinophil infiltration of skin in BALB/c mice; assay: Calcipotriol (MC903)/OVA induced atopic dermatitis model, eosinophils by MBP staining; assay type: in vivo, mouse
Procedure: Dermatitis was induced on the skin of BALB/c mice with a series of calcipotriol (MC903) and OVA challenges over an 8-week period. SP163M (100 μg/mouse), A1AT (2 mg/mouse) or vehicle (DDW) was given twice weekly starting at 4 weeks. The number of eosinophils infiltrating the epithelial sections were quantified by MBP staining.
Accordingly, SP163M improved outcomes in the atopic dermatitis animal model.

[3] = tested on: primary adult rat DRG neurons; assay: Neurite outgrowth in primary cultures of adult DRG neurons; assay type: cell-based
Procedure: Neurite outgrowth in primary cultures of adult DRG neurons: Primary DRGs neurons were isolated from adult male Sprague Dawley rats and cultured as previously described for mice with modifications.^53 The DRGs were stripped of their roots and collected in Hanks Buffered Salt Solution (HBSS) on ice. DRGs were enzymatically digested and approximately 4000 DRG neurons were plated in each well of a 12-well tissue culture plate (Thermo Fisher Scientific, Waltham, MA, USA). All DRG neurons were cultured at 37° C. in 5% CO2 for 54 h in DMEM/F12 containing 2% B27 and 1% FBS with vehicle or SP163M (0-500 ng/ml) added every 24 h. Primary cultured DRG neurons were imaged by phase contrast and the viability of cells was assessed by Trypan blue. Primary DRG neurons were cultured, fixed in 4% paraformaldehyde, and immunofluorescence was performed using a mouse anti-βIII-tubulin primary antibody (Promega, Madison, WI, USA; cat #G7121, 1:250) and then with Alexa Fluor-488 anti-mouse antibody (Life Technologies, Carlsbad, CA, USA) as secondary antibody. DRG neurons were imaged at 20× and 40× manually, and the longest neurite length per cell was measured in 11 images from multiple wells and separate experiments. Approximately 222 and 144 neurons were measured in SP16 and control groups, respectively. Quantification was performed in a blinded manner. For all neurite outgrowth measurements, at least 6 individual experiments were performed in duplicate.

CD11b = assay: Immunoblot of injured sciatic nerve two days after PNL, CD11b; assay type: in vivo, mouse; conditions: 2 μg/g s.c., vs vehicle
Procedure: Neuropathic pain model: Mice (n=30) were randomly assigned to two different groups: SP163M (2 μg/g; s.c. 100 μl) and vehicle (H20 s.c. 100 μl). Mice were treated 1 h prior to partial nerve ligation (PNL) and then daily at least 1 h prior to behavior testing for 2 weeks. PNL studies were performed as previously disclosed^59 and adapted for mice.^57 Male mice were anesthetized with 3% isoflurane (Vetone, USA) in 1.5 L/min oxygen (Praxair, USA) and maintained with 2.5% isoflurane. An incision was made along the long axis of the femur. […] Filaments were presented in a consecutive fashion either ascending or descending using the up-down method as previously disclosed^60 and modified for mice.^57,61 The filament that caused paw withdrawal 50% of the time (the 50% PWT) was determined. […]
Immunoblots of sciatic nerve: Sciatic nerves were harvested 2 days after PNL to identify early molecular and cellular changes. […] Nerves were lysed in RIPA buffer and equal amounts of protein (20 μg) from nerves lysates, as determined by BCA Protein Assay (Bio-Rad, Hercules, CA, USA), were subjected to 10% SDS-PAGE and electro-transferred to nitrocellulose membranes. […] Primary antibodies were detected with HRP-conjugated species-specific secondary antibodies (Cell Signaling Technology, Danvers, MA, USA; cat #7076S or 4S; 1:5000). […]

CCCC[C@H](NC(=O)[C@H](CC(C)C)NC(=O)[C@H](Cc1ccccc1)NC(=O)[C@@H](NC(=O)[C@H](Cc1ccccc1)NC(=O)[C@@H]1CCCN1C(=O)[C@H](CCCCN)NC(=O)[C@H](CC(N)=O)NC(=O)[C@H](Cc1ccccc1)NC(=O)[C@H](CCCCN)NC(=O)[C@@H](NC(C)=O)C(C)C)C(C)C)C(=O)N[C@H](C(=O)N[C@@H](CCC(=O)O)C(=O)N[C@@H](CCC(N)=O)C(=O)N[C@@H](CC(N)=O)C(=O)N[C@H](C(=O)N[C@@H](CCCCN)C(N)=O)[C@@H](C)O)[C@@H](C)CC [SP163M, Ac-VKFNKPFVFLNIeIEQNTK-NH2]
development of mechanical hypersensitivity (tactile allodynia, 50% PWT) ([1]; 2 μg/g s.c. 1 h before PNL then daily for two weeks): did not develop mechanical hypersensitivity | duration of anti-allodynic effects ([1]; 2 μg/g s.c. daily): sustained throughout day 9 post injury | eosinophils per section vs vehicle control ([2]; 100 μg/mouse twice weekly starting at 4 weeks, p=0.045): significantly lower levels of eosinophils per section compared to vehicle control | eosinophilic infiltration vs A1AT ([2]; SP163M 100 μg/mouse vs A1AT 2 mg/mouse): decreased eosinophilic infiltration compared to A1AT given at 20× higher dose | longest neurite (maximum neurite length) ([3]; 240 nM, 54 h, vs control): significantly neurotrophic | sprouting (βIII-tubulin immunofluorescence) ([3]; 240 nM, after 54 h, vs vehicle): showed significant levels of sprouting that included increases in both branching and length | neuronal survival and neurite sprouting (phase contrast images) ([3]; within 48 h, vs untreated controls): induced greater neuronal survival and neurite sprouting compared to untreated controls | reduction of CD11b levels in injured sciatic nerve (densitometric analysis) (CD11b): 10 fold
